Measured values as given in patent US5593656A, “Metal-binding targeted polypeptide constructs” (Cytogen Corporation, priority 1995, dated 1997).

The chains behind the UniProt entries cited, without tags or fusion partners.
UniProt P21729, whole entry: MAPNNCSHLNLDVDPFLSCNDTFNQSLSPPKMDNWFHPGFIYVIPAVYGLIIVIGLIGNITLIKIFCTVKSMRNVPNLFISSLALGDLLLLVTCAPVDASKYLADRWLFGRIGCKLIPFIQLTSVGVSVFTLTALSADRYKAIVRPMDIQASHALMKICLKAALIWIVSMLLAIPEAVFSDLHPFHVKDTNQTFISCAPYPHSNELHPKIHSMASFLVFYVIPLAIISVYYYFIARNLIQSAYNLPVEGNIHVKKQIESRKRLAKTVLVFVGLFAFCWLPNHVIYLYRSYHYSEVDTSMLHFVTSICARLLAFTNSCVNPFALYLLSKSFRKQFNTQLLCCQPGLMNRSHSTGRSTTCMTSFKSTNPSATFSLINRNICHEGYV

Target: I-125-GRP binding to NIH-3T3 cells (Mus musculus, UniProt P21729)
Test: In vitro receptor binding assay: inhibition of binding of I-125-GRP to NIH-3T3 cells
Conditions: 0.45 pM I-125-GRP

CSCC[C@H](NC(=O)[C@H](CC(C)C)NC(=O)[C@H](Cc1c[nH]cn1)NC(=O)CNC(=O)[C@@H](NC(=O)[C@H](C)NC(=O)[C@H](Cc1c[nH]c2ccccc12)NC(=O)[C@H](Cc1c[nH]cn1)NC(=O)[C@H](CC(N)=O)NC(=O)CNC(C)=O)C(C)C)C(=O)NNC(=S)Nc1cc(NC(=S)NNC(=O)[C@H](CCSC)NC(=O)[C@H](CC(C)C)NC(=O)[C@H](Cc2c[nH]cn2)NC(=O)CNC(=O)[C@@H](NC(=O)[C@H](C)NC(=O)[C@H](Cc2c[nH]c3ccccc23)NC(=O)[C@H](Cc2c[nH]cn2)NC(=O)[C@H](CC(N)=O)NC(=O)CNC(C)=O)C(C)C)cc(C(=O)O)c1
% BOUND (1 nm inhibitor): 4.4%
% INHIBITION (1 nm inhibitor): 26%
AVG CPM BOUND (1 nm inhibitor): 2,993 CPM
% BOUND (10 nm inhibitor): 3.3%
% INHIBITION (10 nm inhibitor): 44%
AVG CPM BOUND (10 nm inhibitor): 2,163 CPM
% BOUND (100 nm inhibitor): 1.9%
% INHIBITION (100 nm inhibitor): 68%
AVG CPM BOUND (100 nm inhibitor): 1,264 CPM
